This passage reports Kb and Ki results from patent publication US20100317729A1 (GW Pharma Limited, priority 2007, published 2010).

Sequences of proteins named here, by UniProt entry; tags and fusion partners are left off.
UniProt P34972, whole entry: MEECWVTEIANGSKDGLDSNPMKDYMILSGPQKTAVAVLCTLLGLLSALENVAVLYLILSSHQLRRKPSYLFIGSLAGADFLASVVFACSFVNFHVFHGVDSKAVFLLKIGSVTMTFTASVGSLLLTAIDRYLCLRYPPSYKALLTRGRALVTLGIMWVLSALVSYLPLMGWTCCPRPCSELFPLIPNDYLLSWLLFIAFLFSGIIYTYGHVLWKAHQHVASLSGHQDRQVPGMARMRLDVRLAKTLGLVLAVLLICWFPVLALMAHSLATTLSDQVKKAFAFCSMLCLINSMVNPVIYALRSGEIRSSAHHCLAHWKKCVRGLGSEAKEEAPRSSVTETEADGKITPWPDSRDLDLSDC

For test [1], the target named is T1, hCB2 receptors (Homo sapiens, UniProt P34972).
T1 construct: expressed in transfected cells; host or cells: CHO cells
The experiment in a line: [35S]GTPγS binding assay, CHO-hCB2 cell membranes. Conditions: read-out: Mean apparent KB. It counts as biochemical. As to the method: Nonspecific binding was measured in the presence of 30 μM GTPγS.
The concentrations of [^35S]GTPγS and GDP present in the assay varied depending on whether the assay was conducted with mouse brain or transfected cell membranes. When the assay was conducted with mouse brain membranes, 0.1 nM [^35S]GTPγS and 30 μM GDP were present, whereas the corresponding concentrations present when the assay was conducted with transfected cell membranes were 1 nM and 320 μM respectively.
Additionally, mouse brain membranes were preincubated for 30 minutes at 30° C. with 0.5 U ml^−1 adenosine deaminase to remove endogenous adenosine. […]
Net agonist-stimulated [^35S]GTPγS binding values were calculated by subtracting basal binding values (obtained in the absence of agonist) from agonist-stimulated values (obtained in the presence of agonist) as detailed elsewhere (Ross et al., 1999a).
The apparent dissociation constant (KB) values for antagonism of agonists by THCV in the vas deferens or [^35S]GTPγS binding assay have been calculated by Schild analysis from the concentration ratio, defined as the concentration of an agonist that elicits a response of a particular size in the presence of a competitive reversible antagonist at a concentration, B, divided by the concentration of the same agonist that produces an identical response in the absence of the antagonist. […]
For orientation: Binding of GTPγS marks nucleotide exchange on a G protein.

In test [2] the target is T1, hCB2 receptors. Briefly: Radioligand displacement assay, CHO-hCB2 cell membranes. It counts as binding. The settings on record: read-out: Ki-value for displacement of [3H]CP55940. As to the method: Binding was initiated by the addition of either the brain membranes (33 μg protein per tube) or the transfected hCB2 cells (25 μg protein per tube).
All assays were performed at 37° C. for 60 min before termination by addition of ice-cold wash buffer (50 mM Tris buffer, 1 mg ml^−1 bovine serum albumin, pH 7.4) and vacuum filtration using a 24-well sampling manifold and GF/B filters that had been soaked in wash buffer at 4° C. for at least 24 h.
Each reaction tube was washed six times with a 1.2 ml aliquot of wash buffer. The filters were oven-dried for 60 min and then placed in 5 ml of scintillation fluid. Radioactivity was quantified by liquid scintillation spectrometry.
Specific binding was defined as the difference between the binding that occurred in the presence and absence of 1 μM unlabelled CP55940.
Values are expressed as means and variability as s.e.mean or as 95% confidence limits.

Take `C=C(C)[C@@H]1CCC(C)=C[C@H]1c1c(O)cc(CCCCC)cc1O` [CBD, cannabidiol]: on hCB2 receptors [1], the Kb came out at 0.0651 µM. On hCB2 receptors [2], the Ki – broadly, the dissociation constant of the complex between target and ligand, obtained from inhibition or displacement – was 4.2 µM.
